Assay results from IntAct's records for PubMed 23242214.

B1: Shugoshin 1 (Homo sapiens), Q5FBB7 (parent)
chain: MAKERCLKKSFQDSLEDIKKRMKEKRNKNLAEIGKRRSFIAAPCQIITNTSTLLKNYQDNNKMLVLALENEKSKVKEAQDIILQLRKECYYLTCQLYALKGKLTSQQTVEPAQNQEICSSGMDPNSDDSSRNLFVKDLPQIPLEETELPGQGESFQIEDQIPTIPQDTLGVDFDSGEAKSTDNVLPRTVSVRSSLKKHCNSICQFDSLDDFETSHLAGKSFEFERVGFLDPLVNMHIPENVQHNACQWSKDQVNLSPKLIQPGTFTKTKEDILESKSEQTKSKQRDTQERKREEKRKANRRKSKRMSKYKENKSENKKTVPQKKMHKSVSSNDAYNFNLEEGVHLTPFRQKVSNDSNREENNESEVSLCESSGSGDDSDDLYLPTCKYIQNPTSNSDRPVTRPLAKRALKYTDEKETEGSKPTKTPTTTPPETQQSPHLSLKDITNVSLYPVVKIRRLSLSPKKNKASPAVALPKRRCTASVNYKEPTLASKLRRGDPFTDLCFLNSPIFKQKKDLRRSKKRALEVSPAKEAIFILYYVREFVSRFPDCRKCKLETHICLR
partner: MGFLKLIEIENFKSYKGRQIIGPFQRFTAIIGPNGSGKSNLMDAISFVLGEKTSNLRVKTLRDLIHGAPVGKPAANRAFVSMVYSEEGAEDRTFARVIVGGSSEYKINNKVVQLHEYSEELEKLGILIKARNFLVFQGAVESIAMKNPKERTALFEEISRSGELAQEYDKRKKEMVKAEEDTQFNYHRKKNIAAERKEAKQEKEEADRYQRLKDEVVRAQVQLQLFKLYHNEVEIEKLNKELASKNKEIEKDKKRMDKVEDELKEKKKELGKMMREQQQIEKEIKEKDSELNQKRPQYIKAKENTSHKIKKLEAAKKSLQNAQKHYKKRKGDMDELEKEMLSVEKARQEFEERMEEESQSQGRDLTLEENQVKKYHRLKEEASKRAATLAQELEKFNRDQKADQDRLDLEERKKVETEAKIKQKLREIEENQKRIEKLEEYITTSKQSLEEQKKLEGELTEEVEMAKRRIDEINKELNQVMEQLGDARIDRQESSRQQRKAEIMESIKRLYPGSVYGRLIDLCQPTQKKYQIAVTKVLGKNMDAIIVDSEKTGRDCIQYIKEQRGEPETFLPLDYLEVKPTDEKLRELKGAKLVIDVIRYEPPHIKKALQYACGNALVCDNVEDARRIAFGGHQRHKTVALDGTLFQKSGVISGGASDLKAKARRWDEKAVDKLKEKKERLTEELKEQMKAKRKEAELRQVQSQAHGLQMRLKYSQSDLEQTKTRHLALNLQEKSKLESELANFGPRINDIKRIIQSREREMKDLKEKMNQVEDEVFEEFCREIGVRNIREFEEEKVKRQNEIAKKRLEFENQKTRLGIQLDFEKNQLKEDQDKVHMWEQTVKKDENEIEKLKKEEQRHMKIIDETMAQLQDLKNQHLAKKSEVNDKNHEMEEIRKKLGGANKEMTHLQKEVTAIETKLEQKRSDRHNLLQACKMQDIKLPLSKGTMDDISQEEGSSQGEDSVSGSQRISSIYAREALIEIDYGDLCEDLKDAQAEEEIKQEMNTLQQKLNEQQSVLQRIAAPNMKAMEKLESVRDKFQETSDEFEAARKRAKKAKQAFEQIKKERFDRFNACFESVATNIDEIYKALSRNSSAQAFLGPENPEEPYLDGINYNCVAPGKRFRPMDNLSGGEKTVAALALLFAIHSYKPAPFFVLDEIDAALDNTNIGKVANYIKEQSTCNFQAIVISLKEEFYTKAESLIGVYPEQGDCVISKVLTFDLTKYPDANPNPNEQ
B2: Shugoshin 1 (Homo sapiens), Q5FBB7 (parent)
chain: B1 chain
partner: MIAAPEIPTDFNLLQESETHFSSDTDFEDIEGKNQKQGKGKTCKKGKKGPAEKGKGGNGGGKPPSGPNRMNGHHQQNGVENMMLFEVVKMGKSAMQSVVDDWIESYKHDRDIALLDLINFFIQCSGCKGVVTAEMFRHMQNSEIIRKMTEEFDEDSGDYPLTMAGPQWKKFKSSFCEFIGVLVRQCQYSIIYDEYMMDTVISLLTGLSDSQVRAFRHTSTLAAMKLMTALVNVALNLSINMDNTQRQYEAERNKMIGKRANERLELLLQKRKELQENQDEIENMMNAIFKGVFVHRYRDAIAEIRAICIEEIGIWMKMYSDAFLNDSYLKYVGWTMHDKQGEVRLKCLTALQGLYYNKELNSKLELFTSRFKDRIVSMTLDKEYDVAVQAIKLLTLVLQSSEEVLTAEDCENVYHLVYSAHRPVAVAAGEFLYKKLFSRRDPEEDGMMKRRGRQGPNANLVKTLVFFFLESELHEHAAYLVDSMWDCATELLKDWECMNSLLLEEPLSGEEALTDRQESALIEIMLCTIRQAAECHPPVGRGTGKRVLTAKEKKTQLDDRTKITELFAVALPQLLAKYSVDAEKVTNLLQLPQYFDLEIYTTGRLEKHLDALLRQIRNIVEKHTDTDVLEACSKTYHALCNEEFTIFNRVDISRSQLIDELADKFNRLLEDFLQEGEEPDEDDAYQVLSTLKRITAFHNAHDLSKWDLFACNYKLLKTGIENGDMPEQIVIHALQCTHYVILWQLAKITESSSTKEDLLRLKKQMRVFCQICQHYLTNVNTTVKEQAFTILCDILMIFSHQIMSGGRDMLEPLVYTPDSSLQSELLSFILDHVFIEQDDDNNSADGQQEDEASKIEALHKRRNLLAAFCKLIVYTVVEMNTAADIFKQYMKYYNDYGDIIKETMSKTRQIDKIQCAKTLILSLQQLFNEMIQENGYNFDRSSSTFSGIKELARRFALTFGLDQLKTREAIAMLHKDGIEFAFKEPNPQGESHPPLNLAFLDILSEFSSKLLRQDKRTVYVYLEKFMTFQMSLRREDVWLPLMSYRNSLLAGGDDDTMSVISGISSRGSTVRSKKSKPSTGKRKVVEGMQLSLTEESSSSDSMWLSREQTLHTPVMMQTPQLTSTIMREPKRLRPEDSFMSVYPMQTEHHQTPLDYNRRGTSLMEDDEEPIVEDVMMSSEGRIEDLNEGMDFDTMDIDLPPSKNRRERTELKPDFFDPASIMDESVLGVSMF

Variants of: B1
Conditions: with smc1a_human SMC1A

| effect of a mutation on the interaction | Variant |
| --- | --- |
| disrupting interaction strength | T346A |

Variants of: B2
Conditions: with stag2_human STAG2, Q8N3U4

| effect of a mutation on the interaction | Variant |
| --- | --- |
| decreasing interaction strength | T346A |

Variants of: B2
Conditions: with stag2_human STAG2, Q8N3U4
Remark: another data set of the same source

| effect of a mutation on the interaction | Variant |
| --- | --- |
| disrupting interaction strength | T346A |
